# Measured values taken from US9303062B2, “Solid oxidized glutathione salt and method for producing same” (priority 2011, dated 2016).
# Assay: Deliquescency of powder at 25° C., normal pressure, 75% RH, observed with naked eyes
# Assay type: physicochemical
# Conditions: relative humidity 75% RH
# Method: The solid oxidized glutathione salt obtained as described above has low deliquescency and high water solubility. The deliquescency of the solid oxidized glutathione can be evaluated by allowing a powder of the salt to stand in an environment at a temperature of 25° C., normal pressure, e.g. 1 atmospheric pressure, and a relative humidity of 75% RH, and observing whether deliquescence starts or not with naked eyes.
# Each of the powders of the solid-state oxidized glutathione salt obtained in the above respective Examples was allowed to stand in atmospheric condition of a temperature of 25° C., normal pressure and a relative humidity of 75% RH. After 2 hours or 24 hours, it was determined whether or not deliquescence was is present by observing the occurrence of shape change with naked eyes. For comparison, the deliquescencies of the above commercially available solid oxidized glutathiones were investigated in the same manner.
substance,measurement,setting,value
oxidized glutathione monoammonium salt [Example 2],Deliquescency 2 hours,after 2 hours,no
same,Deliquescency 24 hours,after 24 hours,no
